Measured values as given in paper PMC7017074, “Krebs Cycle Intermediate-Modified Carbonate Apatite Nanoparticles Drastically Reduce Mouse Tumor Burden and Toxicity by Restricting Broad Tissue Distribution of Anticancer Drugs” (Cancers, 2020).

Test: Animal biodistribution study (organ and tumor distribution of DOX)
Type: in vivo, Balb/c mice
Conditions: 4T1 tumor mice, IV DOX 5 mg/kg, 24 h

Compound COc1cccc2c1C(=O)c1c(O)c3c(c(O)c1C2=O)C[C@@](O)(C(=O)CO)C[C@@H]3O[C@H]1C[C@H](N)[C@H](O)[C@H](C)O1 [Free DOX, doxorubicin] has a DOX in brain of 1.06 ± 0.02 ng/mg.
